## Yeast mating assay 2: variants of the scFv Ab-91

Values reported by Engelhart et al. 2022, doi:10.1038/s41597-022-01779-4 (FLAb copy).

Antigen: PDVDLGDISGINAS, a 14-residue peptide of the SARS-CoV-2 spike HR2 region.

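The parent was found by panning a naive human phage display library on the peptide. In library AAYL51, one, two or three CDR residues were substituted; doubles and triples were drawn at random. In AlphaSeq, yeast of one mating type display the scFv and yeast of the other type display the target. After mating in shaken culture at 30 °C for 16 h, diploids were selected and their barcode pairs sequenced. The ratio of observed to expected reads was calibrated, replicate by replicate, on BCL2-family standards whose Kd was known from biolayer interferometry. The assay was run in three technical replicates.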

Parent: Ab-91, a human scFv built as VL, a 15-residue (Gly4Ser)3 linker, VH. Only the CDRs of the heavy chain vary.
VL: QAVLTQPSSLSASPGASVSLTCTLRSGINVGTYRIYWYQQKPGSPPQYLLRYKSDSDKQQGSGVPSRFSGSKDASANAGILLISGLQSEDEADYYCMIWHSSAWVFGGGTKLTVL
VH: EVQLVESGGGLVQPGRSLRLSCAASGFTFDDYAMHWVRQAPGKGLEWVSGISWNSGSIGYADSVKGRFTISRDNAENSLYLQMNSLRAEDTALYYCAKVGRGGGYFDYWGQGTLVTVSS

Changes read parent residue, position, new residue, counted from the first residue of the VH shown.
Affinities are written as log10 Kd with Kd in nM; a lower number is a better binder.
Replicates are averaged; those with no signal do not enter the mean.
An entry "nd" has no value in the source: the pair was not observed among the diploids in any replicate. This suggests poor binding but is not conclusive.
Parent in this assay: reference entry 1.86, copy in this library 0.88.
Background: pairings of library AAYL51 with three empty control strains gave a value in 21% of cases (median 4.54, 5th percentile 3.26). Values in that range, when seen in few replicates, are hard to tell from nonspecific mating.

nd (0 of 3 replicates) for G50T K65I Y108F.
nd (0 of 3 replicates) for W53Y Y60N Y105L.
5.12 (3 of 3 replicates) for F27Q D31N S63H.
4.33 (1 of 3 replicates) for W53K D62A K65Q.
4.38 (1 of 3 replicates) for G26E G59Y.
4.13 (1 of 3 replicates) for V99L F106V Y108D.
nd (0 of 3 replicates) for A33F A61D F106Q.
nd (0 of 3 replicates) for G26E S55N.
5.22 (1 of 3 replicates) for T28S M34C W53N.
nd (0 of 3 replicates) for F27G G100I G104C.
nd (0 of 3 replicates) for T28C G50E S63V.
nd (0 of 3 replicates) for F29I S52N Y60N.
5.10 (3 of 3 replicates) for A33W S52K.
5.35 (1 of 3 replicates) for D30I G50L R101H.
2.97 (1 of 3 replicates) for G59R A61M D62W.
nd (0 of 3 replicates) for G26K S63P G104Q.
4.83 (1 of 3 replicates) for T28W S55P D107L.
2.31 (3 of 3 replicates) for W53F R101Y.
nd (0 of 3 replicates) for G26N F29Y D31S.
4.75 (1 of 3 replicates) for F29W A61N.
4.88 (2 of 3 replicates) for S63R G103C.
4.91 (2 of 3 replicates) for D31V G59Y S63W.
4.79 (2 of 3 replicates) for G56N G100N.
nd (0 of 3 replicates) for G50H K65C G102C.
nd (0 of 3 replicates) for F29M I51P G59E.
5.42 (2 of 3 replicates) for F27L I58M D62P.
4.94 (3 of 3 replicates) for I51Q W53L S63T.
nd (0 of 3 replicates) for S52L W53L K65P.
nd (0 of 3 replicates) for Y32W A33E I58P.
2.50 (3 of 3 replicates) for Y60E G102E.
4.35 (2 of 3 replicates) for S55K G104R Y108C.
nd (0 of 3 replicates) for G50P G100F D107N.
4.70 (3 of 3 replicates) for Y32T A33P Y60M.
nd (0 of 3 replicates) for S55E G59H G102A.
nd (0 of 3 replicates) for M34L S52Y N54H.
3.61 (1 of 3 replicates) for I51W F106E.
nd (0 of 3 replicates) for K65D V99D F106V.
4.33 (1 of 3 replicates) for I51H G100I Y105S.
nd (0 of 3 replicates) for S57Q Y60C D62M.
4.29 (1 of 3 replicates) for W53L S63T Y108P.
5.27 (3 of 3 replicates) for G26P Y105A Y108A.
nd (0 of 3 replicates) for A33S S57M K65N.
2.92 (3 of 3 replicates) for I58S V64Y Y108K.
4.54 (3 of 3 replicates) for T28P G50D S55F.
3.00 (1 of 3 replicates) for Y32D G104F Y108Q.
nd (0 of 3 replicates) for M34S N54L S57N.
nd (0 of 3 replicates) for F29S Y108E.

Picked from the list: the 5 lowest averages where every replicate gave a value.

| changes | log10 Kd (nM), mean | seen in |
|---|---|---|
| W53F R101Y | 2.31 | 3 of 3 |
| Y60E G102E | 2.50 | 3 of 3 |
| I58S V64Y Y108K | 2.92 | 3 of 3 |
| T28P G50D S55F | 4.54 | 3 of 3 |
| Y32T A33P Y60M | 4.70 | 3 of 3 |